The results in this text go back to BindingDB's records for doi:10.1016/0893-133X(94)00129-N (Eli Lilly, 1996).

The chains behind the UniProt entries cited, without tags or fusion partners.
UniProt P18901, whole entry: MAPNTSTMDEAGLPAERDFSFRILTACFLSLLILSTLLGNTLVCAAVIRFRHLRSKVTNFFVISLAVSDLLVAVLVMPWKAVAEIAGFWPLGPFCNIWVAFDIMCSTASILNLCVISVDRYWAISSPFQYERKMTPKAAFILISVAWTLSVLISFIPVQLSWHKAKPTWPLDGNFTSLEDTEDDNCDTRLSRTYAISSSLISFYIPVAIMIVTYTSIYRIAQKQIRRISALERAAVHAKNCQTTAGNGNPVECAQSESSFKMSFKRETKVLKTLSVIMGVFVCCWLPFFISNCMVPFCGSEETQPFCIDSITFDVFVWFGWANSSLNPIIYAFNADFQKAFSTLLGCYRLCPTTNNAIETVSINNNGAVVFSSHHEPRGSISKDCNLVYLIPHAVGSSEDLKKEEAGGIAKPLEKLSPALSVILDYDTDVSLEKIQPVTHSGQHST

This test deals with D(1A) dopamine receptor (Rattus norvegicus, UniProt P18901).

Consider `Cc1nc2n(c(=O)c1CCN1CCC(c3noc4cc(F)ccc34)CC1)CCCC2` [3-{2-[4-(6-Fluoro-benzo[d]isoxazol-3-yl)-piperidin-1-yl]-ethyl}-2-methyl-6,7,8,9-tetrahydro-pyrido[1,2-a]pyrimidin-4-one(risperidone)], for which the Ki is 75 nM.
